Tested on: CC(C)C[C@H](NC(=O)CN)C(=O)N[C@@H](Cc1ccc(O)cc1)C(=O)N[C@@H](C)C(=O)N[C@@H](CO)C(=O)N[C@@H](CCCCN)C(=O)N[C@@H](CC(C)C)C(=O)N[C@@H](CO)C(N)=O
Settings: Candida albicans

The chains behind the UniProt entries cited, without tags or fusion partners.
UniProt P30419, whole entry, looked up, tested part not stated: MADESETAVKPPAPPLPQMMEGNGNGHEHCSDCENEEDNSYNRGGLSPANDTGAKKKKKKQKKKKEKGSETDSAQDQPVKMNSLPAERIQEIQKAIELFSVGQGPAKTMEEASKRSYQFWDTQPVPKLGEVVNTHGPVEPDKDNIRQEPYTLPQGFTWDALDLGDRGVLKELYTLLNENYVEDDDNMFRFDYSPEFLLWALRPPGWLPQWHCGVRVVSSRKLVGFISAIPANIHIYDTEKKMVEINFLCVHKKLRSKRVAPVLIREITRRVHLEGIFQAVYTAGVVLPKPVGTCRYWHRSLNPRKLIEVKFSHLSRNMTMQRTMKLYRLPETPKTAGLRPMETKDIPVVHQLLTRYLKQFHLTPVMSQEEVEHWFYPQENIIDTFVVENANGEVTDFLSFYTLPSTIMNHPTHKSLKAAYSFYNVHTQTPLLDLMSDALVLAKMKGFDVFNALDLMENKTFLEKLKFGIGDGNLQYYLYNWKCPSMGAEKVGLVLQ
UniProt O60551, whole entry, looked up, tested part not stated: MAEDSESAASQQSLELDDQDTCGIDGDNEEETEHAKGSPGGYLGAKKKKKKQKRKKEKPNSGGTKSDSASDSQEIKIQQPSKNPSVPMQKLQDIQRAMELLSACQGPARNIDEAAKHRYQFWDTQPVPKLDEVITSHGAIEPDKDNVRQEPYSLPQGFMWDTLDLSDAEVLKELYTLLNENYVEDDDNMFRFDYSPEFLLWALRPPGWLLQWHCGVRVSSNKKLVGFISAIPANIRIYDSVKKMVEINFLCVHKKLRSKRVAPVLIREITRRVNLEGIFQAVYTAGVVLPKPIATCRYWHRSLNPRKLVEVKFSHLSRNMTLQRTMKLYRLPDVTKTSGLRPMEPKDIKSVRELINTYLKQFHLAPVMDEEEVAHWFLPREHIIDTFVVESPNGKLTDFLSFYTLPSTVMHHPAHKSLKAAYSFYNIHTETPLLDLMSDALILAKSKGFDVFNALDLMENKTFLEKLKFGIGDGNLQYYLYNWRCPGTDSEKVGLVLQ

Q: “Peptide N-myristoyltransferase (Homo sapiens) (from UniProt P30419+O60551)” was tested. Which Km did it give?
A: 0.6 µM
